Experimental data taken from patent US20260271928A1, “CONTROL OF PESTS RESISTANT TO INSECTICIDES” (Syngenta Crop Protection Ag, priority 2023, published 2026).

Target: T1, vesicular acetylcholine transporter (VAChT) (Lucilia sericata, UniProt Z9IC98WFD0)
T1 sequence (Z9IC98WFD0 1-593): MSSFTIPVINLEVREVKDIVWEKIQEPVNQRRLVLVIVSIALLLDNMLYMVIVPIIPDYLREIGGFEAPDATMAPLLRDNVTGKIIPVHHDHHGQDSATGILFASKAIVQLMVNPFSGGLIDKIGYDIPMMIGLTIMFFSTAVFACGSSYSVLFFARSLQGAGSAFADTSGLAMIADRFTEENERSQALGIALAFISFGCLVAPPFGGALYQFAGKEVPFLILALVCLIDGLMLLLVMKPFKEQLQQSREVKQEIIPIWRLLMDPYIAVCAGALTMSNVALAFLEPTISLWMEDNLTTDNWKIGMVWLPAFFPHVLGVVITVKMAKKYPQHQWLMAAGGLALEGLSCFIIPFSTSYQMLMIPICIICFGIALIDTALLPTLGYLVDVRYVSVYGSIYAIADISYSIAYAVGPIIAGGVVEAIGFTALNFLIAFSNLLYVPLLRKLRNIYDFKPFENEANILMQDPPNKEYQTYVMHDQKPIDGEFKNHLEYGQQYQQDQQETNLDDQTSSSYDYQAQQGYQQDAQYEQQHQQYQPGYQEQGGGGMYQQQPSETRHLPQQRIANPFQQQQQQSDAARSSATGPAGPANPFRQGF
Assay: [3H]-A1 radioligand binding and competitive displacement, Lucilia sericata head membrane
Settings: Lucilia membranes; ligands with identified target proteins
Method: Methods herein were generally adapted from this publication.
Binding of [^3H]-A1 was measured using Lucilia sericata head membrane suspended in 50 mM Tris HCL buffer (pH7.4) containing 120 mM NaCl, and 100 mM EDTA, at a protein concentration of 1 mg/ml for dispensing into 96 well plates to give 50 μg protein per well. [^3H]-A1 was added to plates as a 37 MBq/ml ethanol stock dissolved in 2.2 ml assay buffer to give an approximate final well concentration of 9 nM. Test compounds were incubated at 25° C. for 90 min with 9 nM [^3H]-A1 (or a range of concentrations for saturation analysis) at either 8 rates (where prepared manually) or 6 or 10 rates where prepared using robotics. The binding incubation was terminated by vacuum filtration through glass fibre filter mats (PerkinElmerFilterMat A, Seer Green, UK), pre-treated with 0.5% polyethyleneimine and mounted on a Tomtec cell harvester. The filters were then washed rapidly with ice-cold water, dried and bound radioactivity measured using an EG&GWallac betaplate scintillation counter after impregnating the filter with solid scintillant (PerkinElmer MeltiLex). Non specific binding was subtracted from the counts at each data point to give the specific binding. The amount of displacement was calculated as a % of the control and the IC50 calculated from a curve fitted using a single-exponential algorithm. […]

## Ryanodine
  IC50: > 22.9 µM
